Protein sequences, listed by entry. Tags and fused reporters are not part of them. Residues count along the entry.
UniProt P43220, 24-463, species assumed: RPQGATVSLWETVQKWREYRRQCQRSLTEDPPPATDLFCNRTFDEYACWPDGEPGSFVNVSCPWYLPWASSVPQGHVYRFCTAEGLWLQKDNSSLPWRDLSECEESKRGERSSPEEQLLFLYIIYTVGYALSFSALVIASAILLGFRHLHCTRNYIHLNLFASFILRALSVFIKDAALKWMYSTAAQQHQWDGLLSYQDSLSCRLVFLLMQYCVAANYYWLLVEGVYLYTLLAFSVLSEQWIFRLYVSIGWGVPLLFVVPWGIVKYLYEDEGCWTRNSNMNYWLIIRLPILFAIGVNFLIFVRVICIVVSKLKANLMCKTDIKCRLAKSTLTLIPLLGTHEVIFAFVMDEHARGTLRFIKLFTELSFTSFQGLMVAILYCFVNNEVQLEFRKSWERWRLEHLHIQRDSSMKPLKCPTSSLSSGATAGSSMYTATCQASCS

According to US8969288B2 (Indiana University Research and Technology Corporation, priority 2008, dated 2015):

Target: GLP-1 receptor (Homo sapiens, UniProt P43220)
Experiment: GLP-receptor Luciferase assay of prodrug samples incubated in plasma

- half-life: ~10 h
SMILES: CC[C@H](C)[C@H](NC(=O)[C@H](Cc1ccccc1)NC(=O)[C@H](CCC(=O)O)NC(=O)[C@H](CCCCN)NC(=O)[C@H](C)NC(=O)[C@H](C)NC(=O)[C@H](CCC(N)=O)NC(=O)CNC(=O)[C@H](CCC(=O)O)NC(=O)[C@H](CC(C)C)NC(=O)[C@H](Cc1ccc(O)cc1)NC(=O)[C@H](CO)NC(=O)[C@H](CO)NC(=O)[C@@H](NC(=O)[C@H](CC(=O)O)NC(=O)[C@H](CO)NC(=O)[C@@H](NC(=O)[C@H](Cc1ccccc1)NC(=O)[C@@H](NC(=O)CNC(=O)[C@H](CCC(=O)O)NC(=O)[C@H](C)NC(=O)[C@H](Cc1c[nH]cn1)NC(=O)CN(C)C(=O)[C@H](N)CCCCN)[C@@H](C)O)[C@@H](C)O)C(C)C)C(=O)N[C@@H](CS)C(=O)N[C@@H](Cc1c[nH]c2ccccc12)C(=O)N[C@@H](CC(C)C)C(=O)N[C@H](C(=O)N[C@@H](CCCCN)C(=O)NCC(=O)N[C@@H](CCCNC(=N)N)C(=O)O)C(C)C [dLys^−1-Sar^0,C^24GLP(7-36)]
